{"source": "paper PMC9916778", "about": "(International Journal of Molecular Sciences, 2023)", "origin": "cited, not measured here", "test_system": "Caco-2/TC7 cells", "conditions": "cited from earlier work"}
{"substance": "[Au(tpy)Cl(2-TU)]", "values": [{"measurement": "Cells in G2/M arrest, Caco-2/TC7", "value": "around 30%"}]}
